According to EP1479385B1, “Use of cyclooxygenase-2 inhibitors in the treatment and prevention of neoplasia” (G.D. Searle LLC, priority 1996, dated 1998):

Test system: Lewis Lung carcinoma cells
Assay: Combination therapy in Lewis Lung carcinoma model (tumor volume)
Type: in vivo, C57BL/6 mice
Protocol: Lewis Lung carcinoma cells (2.5 x 10^6 cells) prepared from a brei carried in C57BL/6 mice were injected sub-cutaneously into the hind legs of mice.

NS(=O)(=O)c1ccc(-n2nc(C(F)F)cc2-c2ccc(Cl)cc2)cc1 [COX-2 inhibitor, 4-[5-(4-chlorophenyl)-3-(difluoromethyl)-1H-pyrazol-1-yl]benzenesulfonamide]
Tumor Volume (Day 22) % Inhibition (COX-2 inhibitor 6 mg/kg by gavage twice a week): 0%
Tumor Volume (Day 22) % Inhibition (COX-2 inhibitor 20 mg/kg by gavage twice a week): 54%
